IC50 data for five molecules are collected here from patent publication US10221174B2.

The chains behind the UniProt entries cited, without tags or fusion partners.
UniProt P10415, whole entry: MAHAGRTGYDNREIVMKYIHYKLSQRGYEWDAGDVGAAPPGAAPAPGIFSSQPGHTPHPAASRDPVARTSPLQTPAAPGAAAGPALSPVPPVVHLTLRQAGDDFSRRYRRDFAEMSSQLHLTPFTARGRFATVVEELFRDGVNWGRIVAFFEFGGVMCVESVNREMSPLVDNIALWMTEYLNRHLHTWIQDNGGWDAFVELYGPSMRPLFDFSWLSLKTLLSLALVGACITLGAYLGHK
UniProt Q07817, whole entry: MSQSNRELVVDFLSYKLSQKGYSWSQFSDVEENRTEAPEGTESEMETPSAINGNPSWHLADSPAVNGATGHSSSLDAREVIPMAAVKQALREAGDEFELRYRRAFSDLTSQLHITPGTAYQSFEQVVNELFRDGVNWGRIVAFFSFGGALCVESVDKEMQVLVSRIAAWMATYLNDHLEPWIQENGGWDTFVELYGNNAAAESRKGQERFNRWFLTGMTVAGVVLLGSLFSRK

pIC50: −log10 of the molar value. Like-named read-outs stand apart in the source and are kept apart here.

Assay [1] deals with T1, Bcl-2 (Homo sapiens (Human), UniProt P10415). Kind of assay: biochemical.
Assay [2] concerns the target Bcl-xL (Homo sapiens (Human), UniProt Q07817). Kind of assay: Fluorescence polarization competitive binding assay, Bcl-xL. As to conditions: FP competition, 10 nM Bcl-xL, 2 nM Flu-BAK probe; read-out: Inhibitory activity IC50 Bcl-xL.
In assay [3] the target is T1, Bcl-2.

As a reminder, the pIC50 is the IC50 on a negative log10 scale, so that one unit is a factor of ten. `O=C(NS(=O)(=O)c1ccc(NC[C@@H]2COCCO2)c([N+](=O)[O-])c1)c1ccc(C2=CCN(CC3=C(c4ccc(Cl)cc4)CC4(CC3)COC4)CC2)cc1Oc1cnc2[nH]ccc2c1` [Cpd. No. 5, (R)-N-((4-(((1,4-dioxan-2-yl)methyl)amino)-3-nitrophenyl)sulfonyl)-2-((1H-pyrrolo[2,3-b]pyridin-5-yl)oxy)-4-(1-((6-(4-chlorophenyl)-2-oxaspiro[3.5]non-6-en-7-yl)methyl)-1,2,3,6-tetrahydropyridin-4-yl)benzamide]: the pIC50 was 8.68 in assay [1] and 7.85 in assay [2]. In assay [3], `O=C(NS(=O)(=O)c1cc([N+](=O)[O-])c2c(cnn2CC2CCOCC2)c1)c1ccc(N2CCN(CC3=C(c4ccc(Cl)cc4)CC4(CCC4)CC3)CC2)cc1Oc1cnc2[nH]ccc2c1` [compound 60, 2-((1H-pyrrolo[2,3-b]pyridin-5-yl)oxy)-4-(4-((6-(4-chlorophenyl)spiro[3.5]non-6-en-7-yl)methyl)piperazin-1-yl)-N-((7-nitro-1-((tetrahydro-2H-pyran-4-yl)methyl)-1H-indazol-5-yl)sulfonyl)benzamide] gave a pIC50 of 8.68. Same read-out and setting: the result for `O=C(NS(=O)(=O)c1ccc(NCC2CCOCC2)c([N+](=O)[O-])c1)c1ccc(C2=CCN(CC3=C(c4ccc(Cl)cc4)CC4(CCC4)CC3)CC2)cc1Oc1cnc2[nH]ccc2c1` [compound 7, 2-((1H-pyrrolo[2,3-b]pyridin-5-yl)oxy)-4-(1-((6-(4-chlorophenyl)spiro[3.5]non-6-en-7-yl)methyl)-1,2,3,6-tetrahydropyridin-4-yl)-N-((3-nitro-4-(((tetrahydro-2H-pyran-4-yl)methyl)amino)phenyl)sulfonyl)benzamide] reads 8.62. With `O=C(NS(=O)(=O)c1cc([N+](=O)[O-])c2nn(CC3CCOCC3)cc2c1)c1ccc(N2CCN(CC3=C(c4ccc(Cl)cc4)CC4(CCC4)CC3)CC2)cc1Oc1cnc2[nH]ccc2c1` [compound 61, 2-((1H-pyrrolo[2,3-b]pyridin-5-yl)oxy)-4-(4-((6-(4-chlorophenyl)spiro[3.5]non-6-en-7-yl)methyl)piperazin-1-yl)-N-((7-nitro-2-((tetrahydro-2H-pyran-4-yl)methyl)-2H-indazol-5yl)sulfonyl)benzamide], in assay [3], the pIC50 is 8.68. As to `O=C(NS(=O)(=O)c1ccc(NCC2CCOCC2)c([N+](=O)[O-])c1)c1ccc(C2=CCN(CC3=C(c4ccc(Cl)cc4)CC4(CC3)COC4)CC2)cc1Oc1cnc2[nH]ccc2c1` [compound 9, 2-((1H-pyrrolo[2,3-b]pyridin-5-yl)oxy)-4-(1-((6-(4-chlorophenyl)-2-oxaspiro[3.5]non-6-en-7-yl)methyl)-1,2,3,6-tetrahydropyridin-4-yl)-N-((3-nitro-4-(((tetrahydro-2H-pyran-4-yl)methyl)amino)phenyl)sulfonyl)benzamide], the values for the pIC50 in assay [2] and in assay [3] were 7.69 and 8.72, respectively.
